Patent publication US11065492B2, “Controlled medication denaturing composition and method” (priority 2018, dated 2021)

Legend:
[1] = Effects of different oxidants on morphine (Example 2); conditions: approximately 2 hours; for % MORPHINE DENATURED: 500 μL oxidant solution (concentration per oxidant in column % SOLUTION CONCENTRATION; 250 μL for nitric and peracetic acid) + 500 μL 100 μg/mL morphine in methanol
[2] = Degradation of controlled substances in halogenated oxidants: DCI (Example 5); conditions: 500 μL 100 μg/mL drug + 500 μL 20% sodium dichloroisocyanurate dihydrate (DCI), approximately 2 hours, LC-MS

## Sodium chlorite
[1]
  % MORPHINE DENATURED: 90%

## Potassium chromate
[1]
  % MORPHINE DENATURED: 10%

## CCCC(C)C1(CC)C(=O)NC(=O)NC1=O (centres unmarked)
[2]
  Degradation of controlled substance treated with 20% DCI: 95%

## COC(=O)[C@H]1[C@@H](OC(=O)c2ccccc2)C[C@@H]2CC[C@H]1N2C
[2]
  Degradation of controlled substance treated with 20% DCI: 100%

## CNC1(c2ccccc2Cl)CCCCC1=O (centres unmarked)
[2]
  Degradation of controlled substance treated with 20% DCI: 100%

## Potassium Permanganate
[1]; 1% KMNO4, 8.25% sodium hypochlorite (household bleach), 32% peracetic acid
  denaturation/degradation of morphine by oxidant, in words: effectively denatured/degraded
[1]
  % MORPHINE DENATURED: 100%

## CN1C(=O)CN=C(c2ccccc2)c2cc(Cl)ccc21
[2]
  Degradation of controlled substance treated with 20% DCI: 100%

## CCOC(=O)C1(c2ccccc2)CCN(C)CC1
[2]
  Degradation of controlled substance treated with 20% DCI: 100%

## CN[C@@H](C)Cc1ccccc1
[2]
  Degradation of controlled substance treated with 20% DCI: 100%

## CC(N)Cc1ccccc1 (centres unmarked)
[2]
  Degradation of controlled substance treated with 20% DCI: 100%
